# Several values for one entry are separate records, joined by “and”; a condition that tells them apart may be missing. Equal values may be shown once.
# Legend:
# [1] = in vivo; cited from earlier work
# [2] = test system: CHO cells; test: Viability assay against CHO cells (MTT colorimetric assay); type: cell-based, Chinese hamster; details: 72 h, replicates n = 1, 2, 3
# Method: (f) Cell culture: Cells were cultured in Minimum Essential Medium Eagle—Alpha Modification (α-MEM) or […] Dulbecco's Modified Eagle Medium (DMEM), purchased from Gibco. Fetal bovine serum (FBS), 0.25% trypsin (with 1.3 mM ethylenediaminetetraacetic acid, EDTA), 0.85% Trypan blue, and the antibiotic mixture Pen/Strep (10K U/mL penicillin, 10K mg/mL streptomycin) were also purchased from Gibco. All cell culture plastic ware was obtained from Coming or Falcon. Cells were cultured at 37° C. in a humidified chamber with 5% CO2. When used in cell culture, DMSO was purified by filtration through a […] filter. All experiments were carried out in a laminar flow culture cabinet, unless otherwise noted. Absorbance measurements of the 96-well plates were obtained using a Beckman-Coulter DTX 880 multimode detector, equipped with an excitation filter of 595 nm.
# Immortalized CHO cells had been stored in liquid nitrogen. To revive cells, a 1-mL tube of the frozen cells in medium containing 10% DMSO was warmed in a 30° C. water bath and diluted with 9 mL of fresh media. Media contained 10% FBS and 100 U/mL penicillin and […] streptomycin, unless otherwise indicated. The cells were incubated in a T-25 flask at 37° C. at 5% CO2. After 24 hours, the medium was aspirated and replaced with fresh medium. When cells reached a level of 90-100% confluence, they were sub-cultured. The medium was removed, and the cells were treated with 0.25% trypsin containing 1.3 mM EDTA in the incubator. Once the cells were detached from the tissue culture flask, 3-5 mL media was added to quench the trypsin and the mixture was transferred to a 10 mL centrifuge tube. The mixture was centrifuged for 5 min at […], and the supernatant was discarded. The cells were suspended in fresh medium, diluted as required, and transferred to a new culture flask.
# To assay cell viability, a nearly confluent tissue culture flask was trypsinized, and the cells were counted following treatment with Trypan blue, using a hemocytometer. The cells were then diluted to the appropriate stock concentrations in fresh medium and transferred in 100 μL to a 96-well plate using a multi-channel pipette. The number of cells plated varied from experiment to experiment. These were incubated at 37° C. and 5% CO2 for a 24-hour period to allow for adherence. The medium was aspirated, and fresh medium was added, which contained the desired additives in DMSO. The cells were then re-incubated for 72 h. At the completion of the experiment, a 100 μL aliquot of 25 mg/mL MTT in phosphate-buffered saline (PBS) was added to each well. The plate was incubated three hours further to allow for the formation of the formazan product in viable cells. The media was carefully aspirated, and the purple product was solubilized in DMSO. The absorbance of each well was recorded at 595 nm. Data was processed in Microsoft Excel and GraphPad Prism. Experiments were performed in triplicates unless otherwise noted, and the error bars were calculated as the standard error of the mean.
# Trypsinized cells were diluted to a concentration of 3.3×10^4 cells/mL for CHO cells. Each cell line was plated in a 96-well plate, with 100 μL of the stock solution per well (5000 cells per well) and incubated for 24 hours. Stocks of α-amanitin or analogs were prepared at various concentrations, containing a maximum of 0.8% DMSO, and added to various wells, according to the desired final concentration. The cells were incubated for 72 hours, at which point viability was assessed as described.
# [3] = test system: HEK293-OATP1B3 cells; test: Cell viability assay (BrdU incorporation) on HEK293-OATP1B3 cells; type: cell-based, human
# Method: . HEK293 and HEK-OATP1B3 cells were plated at 2.5×10^3 cells/well in a 1:1 mixture of Ham's F12 with DMEM containing 10% charcoal-stripped fetal calf serum (FCS) onto poly-D-lysine-coated 96-well plates and grown for 24 hours. Subsequently, cells were incubated with amanitin analogs at 8 different concentrations (1×10^−6 M to 1.28×10^−11 M, serial 1:5 dilutions). Following 96 h of drug exposure, cell viability was determined by a BrdU incorporation assay (Cell Proliferation ELISA, BrdU, Roche) and chemiluminescence was measured using a FLUOstar Optima plate reader (BMG LABtech). Data analysis was performed with GraphPad Prism 8 (GraphPad Software, Inc., La Jolla, CA) software to plot curve fits.
# [4] = target: eukaryotic RNA polymerase II (Pol II) (Homo sapiens, UniProt P24928); details: literature; cited from earlier work
substance,measurement,setting,value
"α-amanitin [Compound 1, reference compound]",ID50,[1],0.05 to 0.1 mg/kg
same,% viable cells,[2]; 2e-005 M,1%
same,% viable cells,"[2]; 2.22e-006 M, listed as α-amanitin (1)",16% and 13% and 14%
same,% viable cells,"[2]; 2.5e-007 M, listed as α-amanitin (1)",76% and 82% and 81%
same,% viable cells,"[2]; 2.7e-008 M, listed as α-amanitin (1)",84% and 90% and 109%
same,% viable cells,"[2]; 6.67e-006 M, listed as α-amanitin (1)",2% (2×) and 1%
same,% viable cells,"[2]; 7.4e-007 M, listed as α-amanitin (1)",59% and 65% and 81%
same,% viable cells,"[2]; 8.2e-008 M, listed as α-amanitin (1)",76% and 73% and 97%
same,% viable cells,"[2]; 9e-009 M, listed as α-amanitin (1)",89% and 91% and 117%
same,IC50,[3]; 96 h,43.1 ± 7.4 nM
same,cell viability,[3]; highest used concentration of 1 μM,0%
same,Ki,[4],1 to 10 nM

# Source: patent publication US20240082416A1, “AMATOXIN ANALOGS AND USES THEREOF” (THE UNIVERSITY OF BRITISH COLUMBIA, priority 2020, published 2024)
